{
  "source": "patent US10913888B2",
  "about": "“Nanotube mediation of degradative chemicals for oil-field application” (MOLECULAR REBAR DESIGN, LLC, priority 2016, dated 2021)",
  "test": "Niacin association with carbon nanotubes by UV-vis absorption of the supernatant",
  "data": [
    {"smiles": "O=C(O)c1cccnc1", "note": "[niacin]", "values": [
      {"measurement": "total amount of niacin absorbed by the carbon nanotubes", "setting": "Example 8, no PVOH, 0.0578 grams nanotubes, 0.0134 grams niacin", "result": 0.0043, "unit": "grams"},
      {"measurement": "maximum amount of niacin that can fit in the tubes", "setting": "calculated from tube volume 0.093 cm^3 per gram and niacin density 1.473 g/cm^3", "result": 0.137, "unit": "grams"}
    ]}
  ]
}
